Literature values in US10501414B2, “Indole analogs as 5-oxo-ETE receptor antagonists and method of use thereof” (THE ROYAL INSTITUTION FOR THE ADVANCEMENT OF …, priority 2015, dated 2019).

Sequences of proteins named here, by UniProt entry; tags and fusion partners are left off.
UniProt Q8TDS5, whole entry: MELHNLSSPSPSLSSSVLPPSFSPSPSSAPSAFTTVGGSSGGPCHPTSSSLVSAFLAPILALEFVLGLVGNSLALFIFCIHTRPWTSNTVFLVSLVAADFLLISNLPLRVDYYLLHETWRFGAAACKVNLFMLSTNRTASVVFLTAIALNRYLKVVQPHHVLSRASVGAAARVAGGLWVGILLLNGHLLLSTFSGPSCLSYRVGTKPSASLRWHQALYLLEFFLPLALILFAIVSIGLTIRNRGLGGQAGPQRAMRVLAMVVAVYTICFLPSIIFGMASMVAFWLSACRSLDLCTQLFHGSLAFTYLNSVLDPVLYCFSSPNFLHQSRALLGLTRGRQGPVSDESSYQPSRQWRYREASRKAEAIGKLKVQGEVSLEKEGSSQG

Target: OXE receptor (Homo sapiens, UniProt Q8TDS5)
Settings: read-out: IC50, previously disclosed/reported; previously described values for V230 and its enantiomers; cited from earlier work

## CCCCCCc1c(C(=O)C[C@@H](C)CC(=O)O)c2cc(Cl)ccc2n1C
  IC50: 2.73 µM

## CCCCCCc1c(C(=O)C[C@H](C)CC(=O)O)c2cc(Cl)ccc2n1C [Compound V230]
  IC50: 0.006 µM
